What is called IC50 is the midpoint of a concentration-inhibition curve. Read a high IC50 as weaker potency in that assay.

Sequences of proteins named here, by UniProt entry; tags and fusion partners are left off.
UniProt Q9NWZ3, whole entry: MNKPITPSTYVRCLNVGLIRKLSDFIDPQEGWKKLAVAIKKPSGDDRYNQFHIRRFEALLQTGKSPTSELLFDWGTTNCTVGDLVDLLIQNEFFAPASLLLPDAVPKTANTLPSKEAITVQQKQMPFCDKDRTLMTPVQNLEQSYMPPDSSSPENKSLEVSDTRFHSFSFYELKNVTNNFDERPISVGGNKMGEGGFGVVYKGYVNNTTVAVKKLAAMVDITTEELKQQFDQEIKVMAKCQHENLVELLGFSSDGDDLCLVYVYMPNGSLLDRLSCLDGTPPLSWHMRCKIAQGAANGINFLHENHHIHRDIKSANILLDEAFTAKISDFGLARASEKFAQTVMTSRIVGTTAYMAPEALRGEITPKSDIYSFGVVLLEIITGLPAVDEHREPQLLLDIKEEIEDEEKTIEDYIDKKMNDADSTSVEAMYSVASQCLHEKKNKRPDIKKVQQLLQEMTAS

The values below come from patent publication US10329302B2, “Bicyclic-fused heteroaryl or aryl compounds” (Pfizer Inc., priority 2014, dated 2019).

The target of the test is human IRAK4 FL (Full Length) (Homo sapiens (Human), UniProt Q9NWZ3). Nature of the test: IRAK4 Enzymatic DELFIA Assay, Protocol A. The class given is biochemical. The settings on record: 0.6 mM ATP (KM).
`COc1cc2c(OC[C@H]3NC(=O)[C@@H](F)[C@H]3C)nccc2cc1C(N)=O` [Example 189, 1-{[(2S,3S,4S)-4-fluoro-3-methyl-5-oxopyrrolidin-2-yl]methoxy}-7-methoxyisoquinoline-6-carboxamide] showed an IC50 of 0.3 nM.
Take `CCOc1cc2c(OC[C@@H]3CCC(=O)N3)nccc2cc1C(N)=O` [Example 122, 7-ethoxy-1-{[(2S)-5-oxopyrrolidin-2-yl]methoxy}isoquinoline-6-carboxamide]: the midpoint of inhibition, the IC50, lay at 24 nM.
The same measure for `COc1cc2c(OC[C@H]3NC(=O)[C@H](F)[C@H]3C)nccc2cc1C(N)=O` [Example 188, 1-{[(2S,3S,4R)-4-fluoro-3-methyl-5-oxopyrrolidin-2-yl]methoxy}-7-methoxyisoquinoline-6-carboxamide]: 1.9 nM; for `COc1cc2c(OC[C@H]3NC(=O)[C@@H](F)[C@@H]3C)nccc2cc1C(N)=O` [Example 203, 1-{[(2S,3R,4S)-4-fluoro-3-methyl-5-oxopyrrolidin-2-yl]methoxy}-7-methoxyisoquinoline-6-carboxamide]: 3.5 nM.
As for `COc1cc2c(OC[C@@H]3CCC(=O)N3)ccnc2cc1C(N)=O` [Example 262, 6-methoxy-4-{[(2S)-5-oxopyrrolidin-2-yl]methoxy}quinoline-7-carboxamide], the 50% inhibitory concentration (IC50) was found to be 4.7 nM.
For the molecule `COc1cc2c(OC[C@H]3NC(=O)[C@H](C)[C@H]3C)nccc2cc1C(N)=O` [Example 248, 1-{[(2S,3R,4R)-3,4-dimethyl-5-oxopyrrolidin-2-yl]methoxy}-7-methoxyisoquinoline-6-carboxamide], the IC50 is 3.7 nM.
`CC[C@@H]1CC(=O)N[C@@H]1COc1nccc2cc(C(N)=O)c(OC)cc12` [Example 246, 1-{[(2S,3R)-3-ethyl-5-oxopyrrolidin-2-yl]methoxy}-7-methoxyisoquinoline-6-carboxamide] displayed an IC50 of 0.5 nM.
For the molecule `COc1cc2c(OC[C@H]3NC(=O)[C@@H](C)[C@H]3C)nccc2cc1C(N)=O` [Example 247, 1-{[(2S,3R,4S)-3,4-dimethyl-5-oxopyrrolidin-2-yl]methoxy}-7-methoxyisoquinoline-6-carboxamide], the IC50 is 29 nM.
`CC[C@H]1CC(=O)N[C@@H]1COc1nccc2cc(C(N)=O)c(OC)cc12` [Example 244, 1-{[(2S,3S)-3-ethyl-5-oxopyrrolidin-2-yl]methoxy}-7-methoxyisoquinoline-6-carboxamide]: the midpoint of inhibition, the IC50, lay at 4.7 nM.
`COc1cc2c(OC[C@H]3CCC(=O)N3)nccc2cc1C(N)=O` [Example 255, 7-methoxy-1-{[(2R)-5-oxopyrrolidin-2-yl]methoxy}isoquinoline-6-carboxamide] yielded an IC50 of 1680 nM.
With `COc1cc2c(OC[C@@H]3CCC(=O)N3)nccc2cc1C(N)=O` [Example 121, 7-methoxy-1-{[(2S)-5-oxopyrrolidin-2-yl]methoxy}isoquinoline-6-carboxamide] the figure was 7.6 nM.
